Measurements reported in PubChem BioAssay (NCI).
Some of these compounds have results that are not shown, active ones among them.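 The compound was tested at five concentrations on cells cultured in 96-well plates, with a 48-hour exposure period. TGI marks complete inhibition of growth.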

Key:
BT-549 breast = test: NCI-60 cell line screen, 48 h
NCI/ADR-RES ovarian = test: NCI-60 cell line screen, 48 h

CC#CC(O)(C(=O)OCC1=CCCN(C)C1)c1ccccc1 (configuration not stated)
TGI (BT-549 breast): > 100 µM
TGI (NCI/ADR-RES ovarian): 79.6 µM
